Columns and labels:
[1] = biological target: FLT3-ITD-D835V (Homo sapiens (Human), UniProt P36888, D835V/INS600HVDFREYEYD); assay: pFLT3 MSD assay, Ba/F3 FLT3-ITD-D835V; format: cell-based; conditions: Ba/F3 FLT3-ITD-D835V cells, 2 hours, read-out: BaF3-FLT3-ITD-D835V pFlt3 IC50
[2] = biological target: FLT3-ITD-F691L (Homo sapiens (Human), UniProt P36888, F691L/INS600HVDFREYEYD); assay: pFLT3 MSD assay, Ba/F3 FLT3-ITD-F691L; format: cell-based; conditions: Ba/F3 FLT3-ITD-F691L cells, 2 hours, read-out: BaF3-FLT3-ITD-F691L pFlt3 IC50

SMILES	IC50 [1] [µM]	IC50 [2] [µM]
CC(C)(c1cc(NC(=O)Cc2ccc(-c3cnc4[nH]ccc4c3)cc2)no1)C(F)(F)F [Example 26, 2-(4-(1H-pyrrolo[2,3-b]pyridin-5-yl)phenyl)-N-(5-(1,1,1-trifluoro-2-methylpropan-2-yl)isoxazol-3-yl)acetamide]	< 0.01	< 0.01
COc1n[nH]c2ncc(-c3ccc(CC(=O)Nc4cc(C5(C(F)(F)F)CC5)on4)c(F)c3)cc12 [Example 53, 2-(2-fluoro-4-(3-methoxy-1H-pyrazolo[3,4-b]pyridin-5-yl)phenyl)-N-(5-(1-(trifluoromethyl)cyclopropyl)isoxazol-3-yl)acetamide]	< 0.01	< 0.01
CN(C)Cc1n[nH]c2ncc(-c3ccc(CC(=O)Nc4cc(C(C)(C)C)on4)c(F)c3)cc12 [Example 58, N-(5-(tert-butyl)isoxazol-3-yl)-2-(4-(3-((dimethylamino)methyl)-1H-pyrazolo[3,4-b]pyridin-5-yl)-2-fluorophenyl)acetamide]	0.02 to 0.05	0.01 to 0.02
O=C(Cc1ccc(-c2cnc3[nH]ncc3c2)cc1F)Nc1cc(C2(C(F)(F)F)CCC2)on1 [Example 56, 2-(2-Fluoro-4-(1H-pyrazolo[3,4-b]pyridin-5-yl)phenyl)-N-(5-(1-(trifluoromethyl)cyclobutyl)isoxazol-3-yl)acetamide]	< 0.01	< 0.01
CC(C)(C)c1cc(NC(=O)Cc2ccc(-c3cnc4[nH]nc(C#N)c4c3)cc2)no1 [Example 37, N-(5-(tert-butyl)isoxazol-3-yl)-2-(4-(3-cyano-1H-pyrazolo[3,4-b]pyridin-5-yl)phenyl)acetamide]	0.02 to 0.05	0.01 to 0.02
COCCOc1ccc2nc(-c3ccc(CC(=O)Nc4cc(C5(C(F)(F)F)CC5)on4)cc3)cnc2c1 [Example 24, 2-(4-(6-(2-methoxyethoxy)quinoxalin-2-yl)phenyl)-N-(5-(1-(trifluoromethyl)cyclopropyl)isoxazol-3-yl)acetamide]	< 0.01	< 0.01
COc1ccc2nc(-c3ccc(CC(=O)Nc4cc(C5(C(F)(F)F)CC5)on4)cc3)cnc2c1 [Example 22, 2-(4-(6-methoxyquinoxalin-2-yl)phenyl)-N-(5-(1-(trifluoromethyl)cyclopropyl)isoxazol-3-yl)acetamide]	< 0.01	< 0.01
O=C(Cc1ccc(-c2cnc3[nH]cnc3n2)cc1)Nc1cc(C2(C(F)(F)F)CC2)on1 [Example 14, 2-(4-(1H-imidazo[4,5-b]pyrazin-5-yl)phenyl)-N-(5-(1-(trifluoromethyl)cyclopropyl)isoxazol-3-yl)acetamide]	0.02 to 0.05	0.01 to 0.02
CC(C)(c1cc(NC(=O)Cc2ccc(-c3cnc4[nH]ccc4c3)cc2F)no1)C(F)(F)F [Example 29, 2-(2-fluoro-4-(1H-pyrrolo[2,3-b]pyridin-5-yl)phenyl)-N-(5-(1,1,1-trifluoro-2-methylpropan-2-yl)isoxazol-3-yl)acetamide]	< 0.01	< 0.01
CC(C)(C)c1cc(NC(=O)Cc2ccc(-c3cnc4[nH]c(CO)cc4c3)cc2)no1 [Example 50, N-(5-(tert-butyl)isoxazol-3-yl)-2-(4-(2-(hydroxymethyl)-1H-pyrrolo[2,3-b]pyridin-5-yl)phenyl)acetamide]	< 0.01	< 0.01
O=C(Cc1ccc(-c2cnc3[nH]ccc3n2)cc1F)Nc1cc(C2(C(F)(F)F)CC2)on1 [Example 30, 2-(2-fluoro-4-(5H-pyrrolo[2,3-b]pyrazin-2-yl)phenyl)-N-(5-(1-(trifluoromethyl)cyclopropyl)isoxazol-3-yl)acetamide]	< 0.01	< 0.01
COc1cc(OC)c2cc(-c3ccc(CC(=O)Nc4cc(C5(C(F)(F)F)CC5)on4)cc3)cnc2c1 [Example 13, 2-(4-(5,7-dimethoxyquinolin-3-yl)phenyl)-N-(5-(1-(trifluoromethyl)cyclopropyl)isoxazol-3-yl)acetamide]	0.01 to 0.02	< 0.01
Cc1n[nH]c2ncc(-c3ccc(CC(=O)Nc4cc(C(C)(C)C)on4)c(F)c3)cc12 [Example 51, N-(5-(tert-butyl)isoxazol-3-yl)-2-(2-fluoro-4-(3-methyl-1H-pyrazolo[3,4-b]pyridin-5-yl)phenyl)acetamide]	< 0.01	< 0.01

Results, then the compound that gave them:

IC50 [1] [µM]	IC50 [2] [µM]	SMILES
0.02 to 0.05	0.02 to 0.05	COc1cc2nc(Cl)c(-c3ccc(CC(=O)Nc4cc(C5(C(F)(F)F)CC5)on4)c(F)c3)nc2cc1OC [Example 146, 2-[4-(3-chloro-6,7-dimethoxy-quinoxalin-2-yl)-2-fluoro-phenyl]-N-[5-[1-(trifluoromethyl)cyclo-propyl]isoxazol-3-yl]acetamide]
< 0.01	< 0.01	O=C(Cc1ccc(-c2cnc3cc4c(cc3n2)OC[C@@H](CO)O4)cc1F)Nc1cc(C2(C(F)(F)F)CC2)on1 [Example 121, 2-[2-fluoro-4-[(2R)-2-(hydroxymethyl)-2,3-dihydro-[1,4]dioxino[2,3-g]quinoxalin-7-yl]phenyl]-N-[5-[1-(trifluoro-methyl)cyclopropyl]isoxazol-3-yl]acetamide]
< 0.01	< 0.01	CN(C)C1CCN(C(=O)c2cc3cc(-c4ccc(CC(=O)Nc5cc(C6(C(F)(F)F)CC6)on5)c(F)c4)cnc3[nH]2)C1 (centres unmarked) [Example 110, 2-[4-[2-[3-(dimethylamino)pyrrolidine-1-carbonyl]-1H-pyrrolo[2,3-b]pyridin-5-yl]-2-fluoro-phenyl]-N-[5-[1-(trifluoro-methyl)cyclopropyl]isoxazol-3-yl]acetamide]
> 0.05	> 0.05	COc1cc2ncc(-c3ccc(CC(=O)Nc4cc(C(C)(C)C(F)(F)F)on4)c(F)c3)c(N)c2cc1OC [Example 143, 2-[4-(4-amino-6,7-dimethoxy-3-quinolyl)-2-fluoro-phenyl]-N-[5-(2,2,2-trifluoro-1,1-dimethyl-ethyl)isoxazol-3-yl]acetamide]
> 0.05	> 0.05	COc1cc2nc(C(=O)O)c(-c3ccc(CC(=O)Nc4cc(C5(C(F)(F)F)CC5)on4)c(F)c3)nc2cc1OC [Example 133, 3-[3-fluoro-4-[2-oxo-2-[[5-[1-(trifluoro-methyl)cyclopropyl]isoxazol-3-yl]amino]ethyl]phenyl]-6,7-dimethoxy-quinoxaline-2-carboxylic acid]
> 0.05	> 0.05	CCOC(=O)c1nc2cc(OC)c(OC)cc2nc1-c1ccc(CC(=O)Nc2cc(C3(C(F)(F)F)CC3)on2)c(F)c1 [Example 132, ethyl 3-[3-fluoro-4-[2-oxo-2-[[5-[1-(trifluoro-methyl)cyclopropyl]isoxazol-3-yl]amino]ethyl]phenyl]-6,7-dimethoxy-quinoxaline-2-carboxylate]
0.02 to 0.05	0.02 to 0.05	COc1cc2ncc(-c3ccc(CC(=O)Nc4cc(C(C)(C)C(F)(F)F)on4)c(F)c3)c(N=[N+]=[N-])c2cc1OC [Example 141, 2-[4-(4-azido-6,7-dimethoxy-3-quinolyl)-2-fluoro-phenyl]-N-[5-(2,2,2-trifluoro-1,1-dimethyl-ethyl)isoxazol-3-yl]acetamide]
< 0.01	< 0.01	CN(C)NC(=O)c1cc2cc(-c3ccc(CC(=O)Nc4cc(C5(C(F)(F)F)CC5)on4)c(F)c3)cnc2[nH]1 [Example 117, 2-[4-[2-(dimethylaminocarbamoyl)-1H-pyrrolo[2,3-b]pyridin-5-yl]-2-fluoro-phenyl]-N-[5-[1-(trifluoro-methyl)cyclopropyl]isoxazol-3-yl]acetamide]
< 0.01	< 0.01	COc1cc2ncc(-c3ccc(CC(=O)Nc4cc(C(C)(C)C)nn4C)c(F)c3)nc2cc1OC [Example 139, N-(5-tert-butyl-2-methyl-pyrazol-3-yl)-2-[4-(6,7-dimethoxyquinoxalin-2-yl)-2-fluoro-phenyl]acetamide]
< 0.01	< 0.01	COc1cc2ncc(-c3ccc(CC(=O)Nc4cc(C5(C(F)(F)F)CC5)no4)cc3)nc2cc1OC [Example 72, 2-(4-(6,7-dimethoxyquinoxalin-2-yl)phenyl)-N-(3-(1-(trifluoromethyl)cyclopropyl)isoxazol-5-yl)acetamide]
< 0.01	< 0.01	CC(=O)OCCOc1cc2ncc(-c3ccc(CC(=O)Nc4cc(C5(C(F)(F)F)CC5)on4)c(F)c3)nc2cc1OCCOC(C)=O [Example 74, ((2-(3-fluoro-4-(2-oxo-2-((5-(1-(trifluoromethyl)cyclopropyl)isoxazol-3-yl)amino)ethyl)phenyl)quinoxaline-6,7-diyl)bis(oxy))bis(ethane-2,1-diyl) diacetate]
< 0.01	< 0.01	CN(C)c1n[nH]c2ncc(-c3ccc(CC(=O)Nc4cc(C5(C(F)(F)F)CC5)on4)c(F)c3)cc12 [Example 61, 2-(4-(3-(dimethylamino)-1H-pyrazolo[3,4-b]pyridin-5-yl)-2-fluorophenyl)-N-(5-(1-(trifluoromethyl)cyclopropyl)isoxazol-3-yl)acetamide]
< 0.01	< 0.01	COCCOc1cc2ncc(-c3ccc(CC(=O)Nc4cc(C(C)(C)C)on4)cc3)nc2cc1OCCOC [Example 120, 2-[4-[6,7-bis(2-methoxyethoxy)quinoxalin-2-yl]phenyl]-N-(5-tert-butylisoxazol-3-yl)acetamide]
0.01 to 0.02	< 0.01	O=C(Cc1ccc(-c2cnc3cc4c(cc3n2)OCO4)cc1F)Nc1cc(C2(C(F)(F)F)CC2)on1 [Example 119, 2-[4-([1,3]dioxolo[4,5-g]quinoxalin-6-yl)-2-fluoro-phenyl]-N-[5-[1-(trifluoro-methyl)cyclopropyl]isoxazol-3-yl]acetamide]
< 0.01	< 0.01	COCCOc1cc2nc(-c3ccc(CC(=O)Nc4cc(C(C)(C)C(F)(F)F)on4)c(F)c3)cnc2cc1OC [Example 160, 2-[2-fluoro-4-[6-methoxy-7-(2-methoxy-ethoxy)quinoxalin-2-yl]phenyl]-N-[5-(2,2,2-trifluoro-1,1-dimethyl-ethyl)isoxazol-3-yl]acetamide]

— patent US9725465B2, “Biaryl acetamide compounds and methods of use thereof” (Ambit Biosciences Corporation, priority 2013, dated 2017)
